Source: patent US7049321B2, “Methods and pharmaceutical compositions for treatment of central and peripheral nervous system disorders and compounds useful therefor” (Israel Institute for Biological Research, priority 2002, dated 2006)

The chains behind the UniProt entries cited, without tags or fusion partners. Where a name states a change or a piece, a line headed by the entry shows the natural chain unless it says otherwise.
UniProt P08482: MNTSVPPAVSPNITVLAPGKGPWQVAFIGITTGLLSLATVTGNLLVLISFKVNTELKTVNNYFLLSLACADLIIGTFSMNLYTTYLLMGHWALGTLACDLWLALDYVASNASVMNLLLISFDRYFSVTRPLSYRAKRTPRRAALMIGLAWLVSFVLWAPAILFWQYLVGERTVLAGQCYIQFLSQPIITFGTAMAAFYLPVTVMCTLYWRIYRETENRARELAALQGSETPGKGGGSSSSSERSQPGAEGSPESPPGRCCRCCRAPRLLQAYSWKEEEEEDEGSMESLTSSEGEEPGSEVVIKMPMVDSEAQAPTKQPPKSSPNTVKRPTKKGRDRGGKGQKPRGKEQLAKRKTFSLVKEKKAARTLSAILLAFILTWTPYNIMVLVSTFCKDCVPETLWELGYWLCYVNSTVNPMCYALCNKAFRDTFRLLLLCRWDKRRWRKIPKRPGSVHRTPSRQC

How the values were obtained:
[1] = molecular target: T1, M1 mAChR (Rattus norvegicus, UniProt P08482); assay: α-APPs secretion in cell cultures stably transfected with the M1 mAChR; assay type: cell-based
T1 construct: expressed in transfected cells; elsewhere rat pheochromocytoma cells
Description: Cells were plated in 6 well culture plates and used at the age of 3–5 days after plating. […] Cells exposed to medium alone are referred as controls.
Cell supernatants were collected into Eppendorff tubes containing a cocktail of protease inhibitors (5 units/ml aprotinin, […], […] and 10^−4M Phenylmethylsulfonylfluoride (PMSF, a protease inhibitor); Sigma, USA). The collected media were concentrated with Centricon tubes (Amicon, Beverly, Mass., USA) and kept frozen for α-APPs secretion determination. Equal amounts of protein (50–100 μg) were loaded and separated on 10% sodium dodecyl sulfate-polyacrylamide gel electrophoresis (SDS-PAGE). Followed by western blotting onto nitrocellulose membrane, blocked by fat-free milk, and probed for 24 hours at 4° C., with anti-Alzheimer's precursor protein, A4 monoclonal antibody 22C11 (0.25 μg/ml; Boehringer Mannheim, Germany). The nitrocellulose membranes were washed and incubated for 2 hours at room temperature with peroxidase-linked goat anti-mouse IgG antibodies (Jackson Immunoresearch, USA), followed by extensive washout and staining with enhanced chemiluminescence detection system (Amersham). Quantitative evaluation of the immunoreactive bands, on the exposed films, was performed by video-imaging densitometry (Gel-aid software; Galai Co., Israel). APPs levels were expressed as x-fold increase over basal levels.

[2] = system: cells transfected with M1 mAChR; assay: Apoptosis (DAPI, TUNEL, FACS) after starvation, Aβ or H2O2; assay type: cell-based, rat
Description: (§1) Several experiments were performed in serum-free medium.
Cells were grown and treated on glass coverslips.
Apoptotic cells were identified as the pre-G1 phase.

[3] = system: cells transfected with M1 mAChR; assay: Protection from H2O2-induced toxicity; assay type: cell-based, rat
Description: as §1
Cells were plated in 96-well plates in 100 μl medium. […] Plates were incubated for 2 hrs at 37° C. followed by hydrocholoric acid-isopropanol addition (100 μl of 0.04N HCl/isopropanol). Plates were read using ELISA reader at a wavelength of 570 nm.

[4] = system: Rat pheochromocytoma cells transfected with M1 mAChR; assay type: cell-based; details: β-A25-35 (1 μM), 24 hrs, serum-deprived
Description: Confluent rat pheochromocytoma cells transfected with the M1 mAChR cultures were detached with trypsin, washed and plated in 24-well, 6-well, 60-mm or 100-mm plates that were precoated with rat tail collagen (Sigma, Israel). Several experiments were performed in serum-free medium. For 3-(4,5-dimethylthiazol-2-yl)-2,5-diphenyl-tetrazolium bromide (MTT) assay, cells (1.5×10^4) were plated in 96-well collagen-precoated plates, in serum-free medium, with or without various drugs for 24 hours. For differentiation, cells were grown in the presence of 1% FCS and 1% HS, with addition of 50 ng/ml NGF for 7 days, to cause full differentiation. […] After 7 days, cells were washed and the medium was either replaced to serum-free, or cells were detached and replated in serum-free medium. Cells in serum-free medium were treated either with Aβ peptides that were previously “aged” or with H2O2. Tested compounds were added together with the insults for the indicated time, unless otherwise stated.
Cells were plated in 96-well plates in 100 μl medium. […] Plates were read using ELISA reader at a wavelength of 570 nm.
The MTT assay measures primary early changes within the cells, reflecting the integrity of the electron transport chain and provides a readout of cellular redox activity. […]

[5] = system: Rat pheochromocytoma cells transfected with M1 mAChR; assay: Neurite outgrowth response; assay type: cell-based; details: read-out: Maximal response, percent of cells with neurites
Description: Rat pheochromocytoma cells transfected with M1 mAChR cells were grown as described in Gurwitz et al, (NeuroReport 6, 485,1995). For determination of neurite outgrowth, cells plated in six-well plates were used 3–5 days after-plating. Growth factors were added 1 day after plating and muscarinic agonists were added for the last 24 hrs.
Cells were observed under an inverted microscope. The percent of cells with neurite longer than cell diameter were scored in three random fields of several hundred cells from each well. Results were expressed as a percent of cells with neurites. Treatments were performed in triplicate cells. Both NGF (50 ng/ml) and EGF (100 ng/ml) were added 1 day after plating. Muscarinic agonists were added 24 hours before scoring.

| Molecule | α-APPs secretion, comparison in words [1] | Apoptotic death during starvation (FACS) [2] | Apoptotic population after β-amyloid (FACS) ([2]; β-Amyloid 25–35 or 1–42) | Protection from H2O2-induced toxicity [3] | Cell death induced by β-A25-35 [4] | Emax [5] [%] |
| --- | --- | --- | --- | --- | --- | --- |
| deprenyl [reference compound] | not effective |  |  |  |  |  |
| C[N+](C)(C)CCOC(N)=O [carbachol, reference compound] |  | protected cells from apoptotic death | reduced the apoptotic population significantly | protect the cells | significantly attenuated | 80 |
